## Experimental logP (octanol/water) values from OPERA 2.9

Values as listed in the OPERA 2.9 repository of K. Mansouri.

logP is the log10 of the octanol-water partition coefficient; higher is more lipophilic. Cells with "–" have no entry in this list. "via" names the databases from which the curators took the value.

| logP (octanol/water) | compound | name | via |
|---|---|---|---|
| 6.58 | c1ccc2c(c1)-c1ccc3ccc4cccc5cc-2c1c3c45 | Indeno[1,2,3-cd]pyrene | PubChem |
| 0.1 | CC(=O)C(C)O (stereo not given) | Acetoin | eChemPortal |
| 2.105 | CCCCC(CC)(CO)CO | 2-Butyl-2-ethyl-1,3-propanediol | OCHEM, eChemPortal |
| -0.606 | Cc1ccc(NS(=O)(=O)c2cc(/N=N/c3c(N)ccc4cc(S(=O)(=O)[O-])cc(O)c34)ccc2Cl)c(C)c1.[Na+] | – | eChemPortal |
| 0.81 | CC1(CCl)CO1 (stereo not given) | 2-(Chloromethyl)-2-methyloxirane | OCHEM, eChemPortal |
| -3.39 | O=S(=O)([O-])c1ccc(Nc2nc(Nc3ccc(/C=C/c4ccc(Nc5nc(Nc6ccc(S(=O)(=O)[O-])cc6)nc(N6CCOCC6)n5)cc4S(=O)(=O)[O-])c(S(=O)(=O)[O-])c3)nc(N3CCOCC3)n2)cc1.[Na+].[Na+].[Na+].[Na+] | – | eChemPortal |
| -1 | Cc1ccc(S(=O)(=O)N(C)Cc2ccc(Nc3cc(S(=O)(=O)[O-])c(N)c4c3C(=O)c3ccccc3C4=O)cc2)cc1.[Na+] | – | eChemPortal |
| 4.81 | CC(C)(C)C1=CC(=O)C(C(C)(C)C)=CC1=O | 2,5-Di-tert-butylcyclohexa-2,5-diene-1,4-dione | OCHEM, eChemPortal |
| 3.19 | COc1ccc(Nc2ccc(OC)cc2)cc1 | 4,4'-Dimethoxydiphenylamine | OCHEM |
| -0.47 | COc1cc([NH-])c([NH-])cc1OC.[Cl-].[Cl-].[Pt+4] | – | OCHEM |
| -3.4 | CCn1c(O)c(/N=N/c2ccc(S(=O)(=O)c3ccc(/N=N/c4c(C)c(CS(=O)(=O)[O-])c(=O)n(CC)c4O)cc3)cc2)c(C)c(CS(=O)(=O)[O-])c1=O.[Na+].[Na+] | – | eChemPortal |
| -2.08 | O[C@H]1[C@H](O)[C@@H](O)[C@H](O)[C@@H](O)[C@H]1O | myo-Inositol | eChemPortal |
| -4.2 | Cc1c(Nc2cc(S(=O)(=O)[O-])c(N)c3c2C(=O)c2ccccc2C3=O)cc(S(=O)(=O)[O-])cc1Nc1nc(F)nc(F)c1Cl.[Na+].[Na+] | – | eChemPortal |
| -3.1 | C=CCCCCCCCCC(=O)NCCOC(=O)CC(C(=O)[O-])S(=O)(=O)[O-].[Na+].[Na+] (stereo not given) | – | eChemPortal |
| 1 | CC[C@H]1OC(=O)C[C@@H](O)[C@H](C)[C@@H](O[C@@H]2O[C@H](C)[C@@H](O)[C@H](N(C)C)[C@H]2O)[C@@H](CC=O)C[C@@H](C)C(=O)C=CC(C)=C[C@@H]1CO[C@@H]1O[C@H](C)[C@@H](O)[C@@H](OC)[C@H]1OC | Tylosin B | OCHEM |
| 3.39 | CCCCOC(=O)/C=C\C(=O)OCCCC | Dibutyl maleate | eChemPortal |
| -0.055 | OCCCCCCO | 1,6-Hexanediol | PubChem, eChemPortal |
| -0.14 | O=c1ccnc2n1CCCC2 | 6,7,8,9-Tetrahydro-4H-pyrido[1,2-alpha]pyrimidin-4-one | OCHEM |
| 3.82 | CCCCC(=O)O[C@]1(C(=O)CO)CC[C@H]2[C@@H]3CCC4=CC(=O)C=C[C@]4(C)[C@H]3C(=O)C[C@@]21C | – | OCHEM |
| 3.33 | O=C(NC1CCCCC1)NC1CCCCC1 | 1,3-Dicyclohexylurea | OCHEM |
| 0.783 | C=C(C)C(=O)OCCOC(=O)CCC(=O)O | (2-((2-Methyl-1-oxoallyl)oxy)ethyl) hydrogen succinate | eChemPortal |
| 2.26 | Cc1no[n+]([O-])c1S(=O)(=O)c1ccccc1 | 3-(Benzenesulfonyl)-4-methyl-2-oxo-1,2lambda~5~,5-oxadiazole | OCHEM |
| -1.2 | CN(C)CCOC(=O)c1ccccc1/N=N/c1ccc(O)c(/N=N/c2ccccc2C(=O)OCCN(C)C)c1O.CS(=O)(=O)O.CS(=O)(=O)O | – | eChemPortal |
| 2.55 | CCCCc1cc(C)c(Nc2ccc(Nc3c(C)cc(CCCC)c(S(=O)(=O)[O-])c3Br)c3c2C(=O)c2ccccc2C3=O)c(Br)c1S(=O)(=O)[O-].[Na+].[Na+] | – | eChemPortal |
| -4.7 | Nc1nc(Cl)nc(Nc2cc(S(=O)(=O)[O-])cc3cc(S(=O)(=O)[O-])c(/N=N/c4cc(S(=O)(=O)[O-])c5cccc(S(=O)(=O)[O-])c5c4[O-])c([O-])c23)n1.[Cu+2].[Na+].[Na+].[Na+].[Na+] | – | eChemPortal |
| 0.316 | O=C(O)CC(=O)CC(=O)O | 3-Ketoglutaric acid | eChemPortal |
| 1.3 | CC(C)(C)NCC(O)COc1cccc2nc(O)[nH]c12 (stereo not given) | – | OCHEM |
| -2.51 | Nc1c(Cl)cc(-c2cc(Cl)c(N)c(S(=O)(=O)O)c2)cc1S(=O)(=O)O | 4,4'-Diamino-5,5'-dichloro[biphenyl]-3,3'-disulfonic acid | OCHEM |
| 0.028 | O=C(O)C1=NN(c2ccc(S(=O)(=O)O)cc2)C(=O)C1/N=N/c1ccc(S(=O)(=O)[O-])cc1.O=C(O)C1=NN(c2ccc(S(=O)(=O)O)cc2)C(=O)C1/N=N/c1ccc(S(=O)(=O)[O-])cc1.O=C(O)C1=NN(c2ccc(S(=O)(=O)O)cc2)C(=O)C1/N=N/c1ccc(S(=O)(=O)[O-])cc1.[Al+3] (stereo partly drawn) | C.I. Pigment Yellow 100 | eChemPortal |
| 4.17 | CC(C)NCC(O)COc1ccccc1C1CC2CCC1C2 (stereo not given) | Bornaprolol | OCHEM |
| 4.04 | CCCCCOCCCCC | Pentyl ether | OCHEM |
| -0.83 | Cc1cc(N)c(S(=O)(=O)O)cc1Cl | 2-Amino-5-chloro-4-methylbenzenesulfonic acid | eChemPortal |
| -0.38 | C[Si](C)(Cl)Cl | Dimethyldichlorosilane | eChemPortal |
| 1.7 | C[SiH](Cl)Cl | Methyldichlorosilane | PubChem |
| 5.5 | Cc1c(Cl)cc(C(C)C)cc1Cl | 1,3-Dichloro-2-methyl-5-(propan-2-yl)benzene | OCHEM |
| 2.77 | Nc1cccc(OCc2ccccc2)c1 | 3-Benzyloxyaniline | OCHEM |
| 4.56 | ClCCCCCCCCCl | Octane, 1,8-dichloro- | OCHEM |
| 1.7 | COC(=O)c1ccc(C)c(N)c1 | Methyl 3-amino-4-methylbenzoate | eChemPortal |
| -3.1 | Cc1ncc(C[n+]2csc(CCOP(=O)(O)O)c2C)c(N)n1 | Monophosphothiamine parent | eChemPortal |
| 1.88 | COc1c(O)c(Br)cc(C=O)c1[N+](=O)[O-] | 5-Bromo-2-nitrovanillin | OCHEM |
| 2.15 | CCCCCCCOC(=O)c1cc(=O)[nH]c(=O)[nH]1 | Heptyl 2,4-dioxo-1H-pyrimidine-6-carboxylate | OCHEM |
| 0.39 | O=[N+]([O-])c1ccc2c(ccc[n+]2[O-])c1 | 6-Nitro-1-oxo-1lambda~5~-quinoline | OCHEM |
| 3.2 | CCOC(=O)c1ccc(N(C)C)cc1 | Parbenate | eChemPortal |
| -1.75 | Nc1cnn(CCO)c1N.O=S(=O)(O)O | 4,5-Diamino-1-(2-hydroxyethyl)pyrazole sulfate | eChemPortal |
| -1 | Nc1ccc(Nc2ccc3nc4ccc(Nc5ccc6nc7ccc(Nc8ccc9nc%10ccc(Nc%11ccccc%11)cc%10[n+](-c%10ccccc%10)c9c8)cc7[n+](-c7ccccc7)c6c5)cc4[n+](-c4ccccc4)c3c2)cc1.[O]=[Cr](=[O])([O-])[OH].[O]=[Cr](=[O])([O-])[OH].[O]=[Cr](=[O])([O-])[OH] | C.I. Pigment Black 1 | eChemPortal |
| -2.49 | CCN(CC)c1ccc(C(=C2C=CC(=[N+](CC)Cc3cccc(S(=O)(=O)O)c3)C=C2C)c2ccc(N(CC)Cc3cccc(S(=O)(=O)[O-])c3)cc2C)cc1.[Na+] | Acid blue 104 | eChemPortal |
| 1.4 | CCCN1Cn2c(nc3ccccc3c2=O)C1C (stereo not given) | 3-Methyl-2-propyl-1,3-dihydroimidazo[5,1-b]quinazolin-9-one | OCHEM |
| -2.6 | CCCC[N+](C)(C)C.[I-] | N,N,N-Trimethylbutan-1-aminium iodide | OCHEM |
| -3.87 | OC[C@@H](O)[C@@H](O[C@H]1O[C@H](CO)[C@@H](O)[C@H](O)[C@H]1O)[C@H](O)[C@@H](O)CO | 4-O-alpha-D-Glucopyranosyl-D-glucitol | eChemPortal |
| 2.41 | COC(=O)C(C#N)=Cc1ccc(Br)o1 | 3-(5-Bromo-2-furyl)-2-methoxycarbonylacrylonitrile | OCHEM |

The first 6 entries again:

compound	name	logP (octanol/water)	via
c1ccc2c(c1)-c1ccc3ccc4cccc5cc-2c1c3c45	Indeno[1,2,3-cd]pyrene	6.58	PubChem
CC(=O)C(C)O (stereo not given)	Acetoin	0.1	eChemPortal
CCCCC(CC)(CO)CO	2-Butyl-2-ethyl-1,3-propanediol	2.105	OCHEM, eChemPortal
Cc1ccc(NS(=O)(=O)c2cc(/N=N/c3c(N)ccc4cc(S(=O)(=O)[O-])cc(O)c34)ccc2Cl)c(C)c1.[Na+]	–	-0.606	eChemPortal
CC1(CCl)CO1 (stereo not given)	2-(Chloromethyl)-2-methyloxirane	0.81	OCHEM, eChemPortal
O=S(=O)([O-])c1ccc(Nc2nc(Nc3ccc(/C=C/c4ccc(Nc5nc(Nc6ccc(S(=O)(=O)[O-])cc6)nc(N6CCOCC6)n5)cc4S(=O)(=O)[O-])c(S(=O)(=O)[O-])c3)nc(N3CCOCC3)n2)cc1.[Na+].[Na+].[Na+].[Na+]	–	-3.39	eChemPortal

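The OPERA project collected these measurements from public sources as training and test data for property models. A listed value is a point estimate from one report or more. Method and conditions are not stated for these values. A value may pool stereoisomers or salt forms, and the file does not say which form was measured. Some upstream entries may be estimates or bounds without being marked so.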